The text below walks through data of US20050176755A1, “Aza-bridged-bicyclic amino acid derivatives as alpha4 integrin antagonists” (priority 2003, published 2005).

Amino acid sequences for entries named in this document (tags omitted). Residues count along the entry.
UniProt P13612, 34-1032 limits assumed: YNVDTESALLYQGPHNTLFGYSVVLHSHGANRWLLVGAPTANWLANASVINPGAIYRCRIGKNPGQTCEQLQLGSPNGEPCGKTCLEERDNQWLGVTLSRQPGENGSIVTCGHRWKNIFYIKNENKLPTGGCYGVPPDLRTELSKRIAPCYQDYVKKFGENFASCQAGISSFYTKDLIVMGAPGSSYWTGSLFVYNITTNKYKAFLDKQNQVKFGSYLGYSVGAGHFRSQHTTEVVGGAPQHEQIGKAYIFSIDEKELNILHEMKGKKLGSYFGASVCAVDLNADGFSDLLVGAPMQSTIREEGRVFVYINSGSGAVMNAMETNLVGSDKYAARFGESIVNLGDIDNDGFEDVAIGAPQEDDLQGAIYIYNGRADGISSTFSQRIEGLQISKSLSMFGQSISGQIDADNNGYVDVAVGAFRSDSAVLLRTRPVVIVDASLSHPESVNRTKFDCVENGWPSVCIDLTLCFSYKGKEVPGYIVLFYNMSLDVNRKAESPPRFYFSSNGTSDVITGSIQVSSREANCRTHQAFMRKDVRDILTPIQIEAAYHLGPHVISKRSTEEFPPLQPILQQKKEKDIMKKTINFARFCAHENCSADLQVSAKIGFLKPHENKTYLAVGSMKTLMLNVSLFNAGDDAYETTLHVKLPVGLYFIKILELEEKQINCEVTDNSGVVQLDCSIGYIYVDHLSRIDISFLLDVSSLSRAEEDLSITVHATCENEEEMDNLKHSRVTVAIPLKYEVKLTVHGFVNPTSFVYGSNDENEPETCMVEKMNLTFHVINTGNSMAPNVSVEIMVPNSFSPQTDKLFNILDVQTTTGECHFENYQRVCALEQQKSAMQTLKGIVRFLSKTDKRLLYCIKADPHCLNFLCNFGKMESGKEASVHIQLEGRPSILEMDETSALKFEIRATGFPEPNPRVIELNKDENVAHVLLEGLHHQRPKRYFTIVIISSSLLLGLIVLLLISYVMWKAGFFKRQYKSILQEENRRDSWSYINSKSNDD
UniProt P26010, 20-798 limits assumed: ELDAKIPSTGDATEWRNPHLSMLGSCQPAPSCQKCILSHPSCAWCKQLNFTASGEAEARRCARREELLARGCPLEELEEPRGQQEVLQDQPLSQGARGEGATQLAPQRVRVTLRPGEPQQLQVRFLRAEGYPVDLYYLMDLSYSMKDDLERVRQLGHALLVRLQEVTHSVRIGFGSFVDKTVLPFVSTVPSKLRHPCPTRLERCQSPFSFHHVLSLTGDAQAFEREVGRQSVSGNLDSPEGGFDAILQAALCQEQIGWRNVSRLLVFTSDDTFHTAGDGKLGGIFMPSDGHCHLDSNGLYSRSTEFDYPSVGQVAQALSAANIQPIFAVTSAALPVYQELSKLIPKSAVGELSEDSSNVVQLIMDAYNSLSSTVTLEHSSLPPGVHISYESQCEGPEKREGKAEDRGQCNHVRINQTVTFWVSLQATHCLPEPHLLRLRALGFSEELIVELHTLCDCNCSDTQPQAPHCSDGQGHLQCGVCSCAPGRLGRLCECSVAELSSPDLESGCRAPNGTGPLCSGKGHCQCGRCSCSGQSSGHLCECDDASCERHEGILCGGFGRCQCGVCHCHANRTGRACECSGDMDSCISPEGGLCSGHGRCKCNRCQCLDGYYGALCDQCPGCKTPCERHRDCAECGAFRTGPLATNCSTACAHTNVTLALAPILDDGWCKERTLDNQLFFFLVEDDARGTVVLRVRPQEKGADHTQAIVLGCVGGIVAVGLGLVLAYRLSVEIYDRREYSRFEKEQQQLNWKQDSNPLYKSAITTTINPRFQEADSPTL
UniProt P05556, 21-798 limits assumed: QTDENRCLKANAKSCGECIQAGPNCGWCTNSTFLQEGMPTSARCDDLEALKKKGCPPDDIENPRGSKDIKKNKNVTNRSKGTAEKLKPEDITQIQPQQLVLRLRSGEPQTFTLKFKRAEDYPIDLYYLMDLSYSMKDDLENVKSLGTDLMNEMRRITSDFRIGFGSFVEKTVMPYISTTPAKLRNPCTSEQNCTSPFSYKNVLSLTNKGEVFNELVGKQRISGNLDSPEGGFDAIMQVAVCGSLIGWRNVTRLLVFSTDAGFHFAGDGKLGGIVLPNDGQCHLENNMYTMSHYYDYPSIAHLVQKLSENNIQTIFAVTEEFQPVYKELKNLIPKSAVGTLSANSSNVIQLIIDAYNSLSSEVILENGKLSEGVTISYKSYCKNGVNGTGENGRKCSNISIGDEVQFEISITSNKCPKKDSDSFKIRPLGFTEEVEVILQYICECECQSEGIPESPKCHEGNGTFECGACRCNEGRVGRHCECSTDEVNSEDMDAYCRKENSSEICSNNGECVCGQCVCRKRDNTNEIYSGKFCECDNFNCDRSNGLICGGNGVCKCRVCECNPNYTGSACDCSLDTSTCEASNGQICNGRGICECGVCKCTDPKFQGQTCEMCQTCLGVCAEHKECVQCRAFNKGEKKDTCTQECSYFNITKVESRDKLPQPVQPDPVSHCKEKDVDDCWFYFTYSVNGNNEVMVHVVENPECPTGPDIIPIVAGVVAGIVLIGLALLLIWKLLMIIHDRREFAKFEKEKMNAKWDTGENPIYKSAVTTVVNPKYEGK

Structures are written as SMILES.

In one experiment the target is human α4β7 (Homo sapiens, UniProt P13612+P26010). Put plainly: α4β7-K562 Cell Adhesion Assay (α4β7 Mediated Adhesion/VCAM-1). To be noted: read-out: α4β7 IC50; K562 cells expressing human α4β7, adhesion to recombinant hVCAM-1; tested form: TFA.
In the next experiment the target is α4β1 (Homo sapiens, UniProt P05556+P13612). Put plainly: Ramos Cell Adhesion Assay (α4β1 Mediated Adhesion/VCAM-1). To be noted: read-out: α4β1 IC50; Ramos cells, adhesion to recombinant hVCAM-1; tested form: TFA.

As a reminder, the IC50 is the point on the concentration scale where inhibition reaches its midpoint. For the compound `CC(C)(C)OC(=O)NCCC(=O)N1C2CCC(CC2)C1C(=O)N[C@@H](Cc1ccc(NC(=O)c2c(Cl)cncc2Cl)cc1)C(=O)O` (some centres unmarked), the IC50 amounted to 30 nM on human α4β7 and 9 nM on α4β1.
